# Literature values as cited in patent publication US20050124533A1, “Glucocorticoid blocking agents for increasing blood-brain barrier permeability stan-261con” (priority 2002, published 2005).
# Settings: in vivo; cited from earlier work
substance,measurement,value
gentamicin,concentrations achieved in the CNS as share of those achieved in plasma,less than 10%
